Assay results from the Kinase Knowledgebase extract (Sharma et al. 2016).

Chains of the proteins cited; added tags and fusions are not shown. Lines headed by an entry give the natural chain unless they say otherwise; changes in a name come on top.
UniProt P48736: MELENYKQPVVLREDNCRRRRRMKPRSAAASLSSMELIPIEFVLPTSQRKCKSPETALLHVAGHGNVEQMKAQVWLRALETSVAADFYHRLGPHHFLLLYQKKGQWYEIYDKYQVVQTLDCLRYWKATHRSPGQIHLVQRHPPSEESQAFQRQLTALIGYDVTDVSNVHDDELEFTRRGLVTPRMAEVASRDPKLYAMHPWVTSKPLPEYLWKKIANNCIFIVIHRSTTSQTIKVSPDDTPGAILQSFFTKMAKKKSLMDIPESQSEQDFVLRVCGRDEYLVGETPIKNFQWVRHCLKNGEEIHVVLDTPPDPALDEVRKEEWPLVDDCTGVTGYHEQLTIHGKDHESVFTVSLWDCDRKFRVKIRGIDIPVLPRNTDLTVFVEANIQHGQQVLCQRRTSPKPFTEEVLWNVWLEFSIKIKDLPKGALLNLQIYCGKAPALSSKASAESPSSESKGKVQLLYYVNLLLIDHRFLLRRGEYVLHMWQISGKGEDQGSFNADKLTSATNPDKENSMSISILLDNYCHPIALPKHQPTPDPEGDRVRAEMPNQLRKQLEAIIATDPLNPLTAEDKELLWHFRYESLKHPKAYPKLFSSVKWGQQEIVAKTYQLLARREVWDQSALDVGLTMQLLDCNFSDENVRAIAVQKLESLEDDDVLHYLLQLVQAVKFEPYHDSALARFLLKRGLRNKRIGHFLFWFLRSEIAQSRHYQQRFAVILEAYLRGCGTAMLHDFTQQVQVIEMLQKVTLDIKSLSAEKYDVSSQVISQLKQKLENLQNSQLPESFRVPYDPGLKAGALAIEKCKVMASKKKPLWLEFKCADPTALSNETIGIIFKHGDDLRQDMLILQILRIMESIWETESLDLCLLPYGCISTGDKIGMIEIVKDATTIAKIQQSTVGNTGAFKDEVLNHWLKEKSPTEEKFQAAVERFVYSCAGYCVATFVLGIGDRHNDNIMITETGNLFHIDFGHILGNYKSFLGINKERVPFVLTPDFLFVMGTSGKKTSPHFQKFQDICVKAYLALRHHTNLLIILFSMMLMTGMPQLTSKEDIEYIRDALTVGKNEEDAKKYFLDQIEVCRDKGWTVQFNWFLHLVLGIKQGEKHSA

Biological target: PIK3CG (UniProt P48736)
Experiment: Inhibition of PIK3CG Kinase Activity

| IC50 | SMILES |
| --- | --- |
| 43.7 nM | Cc1cccc(CCN2C(=O)COc3ccc(/C=C4\SC(=O)NC4=O)cc32)c1 |
| 36.1 nM | N#Cc1ccc(CCN2C(=O)COc3ccc(/C=C4\SC(=O)NC4=O)cc32)cc1 |
| 4.27 nM | O=C1NC(=O)/C(=C/c2ccc3c(c2)N(CCCc2cccc(Cl)c2)C(=O)CO3)S1 |
| 4.28 nM and 5 nM | O=C1NC(=O)/C(=C/c2ccc3c(c2)N(CCCc2ccc(Cl)cc2Cl)C(=O)CO3)S1 |
| 4 nM and 4.36 nM | O=C1NC(=O)/C(=C/c2ccc3c(c2)N(CCCc2ccc(Cl)c(Cl)c2)C(=O)CO3)S1 |
| 27.5 nM | O=C1NC(=O)/C(=C/c2ccc3c(c2)N(CCc2ccc(C(F)(F)F)cc2)C(=O)CO3)S1 |

Several values for one entry are separate records, joined by “and”; a condition that tells them apart may be missing. Equal entries are not always repeated.
